Measurements: patent publication US20180185459

Target: T1, cofactor factor Va of the prothrombinase complex (endogenous, in human plasma), P12259
T1 chain 1: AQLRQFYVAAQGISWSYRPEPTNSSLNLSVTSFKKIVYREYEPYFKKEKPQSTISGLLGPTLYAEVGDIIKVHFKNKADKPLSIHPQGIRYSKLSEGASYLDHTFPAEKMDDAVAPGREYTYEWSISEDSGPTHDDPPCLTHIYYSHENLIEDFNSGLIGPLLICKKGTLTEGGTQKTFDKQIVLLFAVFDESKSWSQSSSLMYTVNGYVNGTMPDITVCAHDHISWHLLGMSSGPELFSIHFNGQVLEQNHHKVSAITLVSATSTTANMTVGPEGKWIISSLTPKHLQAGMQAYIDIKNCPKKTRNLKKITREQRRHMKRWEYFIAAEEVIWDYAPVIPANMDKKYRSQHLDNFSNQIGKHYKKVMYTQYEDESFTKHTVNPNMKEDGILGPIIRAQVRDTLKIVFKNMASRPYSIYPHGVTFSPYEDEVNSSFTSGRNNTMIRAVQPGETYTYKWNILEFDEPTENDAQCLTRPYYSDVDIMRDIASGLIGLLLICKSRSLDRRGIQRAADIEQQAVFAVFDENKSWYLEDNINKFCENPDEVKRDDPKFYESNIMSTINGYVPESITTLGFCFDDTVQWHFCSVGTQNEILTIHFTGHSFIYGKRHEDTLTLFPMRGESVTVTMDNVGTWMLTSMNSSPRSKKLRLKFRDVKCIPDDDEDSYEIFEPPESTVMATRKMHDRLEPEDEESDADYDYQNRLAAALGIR
T1 chain 2: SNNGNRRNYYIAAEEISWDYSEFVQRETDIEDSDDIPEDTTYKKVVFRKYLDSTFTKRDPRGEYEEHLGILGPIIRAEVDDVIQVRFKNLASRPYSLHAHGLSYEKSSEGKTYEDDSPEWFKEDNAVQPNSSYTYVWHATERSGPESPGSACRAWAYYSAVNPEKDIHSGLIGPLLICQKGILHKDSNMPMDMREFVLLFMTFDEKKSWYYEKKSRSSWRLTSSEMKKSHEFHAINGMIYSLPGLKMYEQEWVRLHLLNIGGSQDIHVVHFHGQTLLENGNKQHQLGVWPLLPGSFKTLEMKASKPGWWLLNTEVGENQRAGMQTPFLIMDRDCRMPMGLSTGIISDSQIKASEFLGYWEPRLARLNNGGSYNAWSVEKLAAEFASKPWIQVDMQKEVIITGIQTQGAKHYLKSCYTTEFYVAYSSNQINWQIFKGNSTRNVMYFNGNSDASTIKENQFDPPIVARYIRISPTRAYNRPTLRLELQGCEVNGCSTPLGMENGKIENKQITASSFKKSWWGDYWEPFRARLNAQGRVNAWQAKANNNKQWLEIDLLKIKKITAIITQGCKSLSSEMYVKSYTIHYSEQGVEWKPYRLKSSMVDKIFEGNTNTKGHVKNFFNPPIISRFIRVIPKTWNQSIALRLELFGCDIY

B1: EGR-Xa, active site inhibited full length human fXa (human plasma derived) (protein)
chain 1: ANSFLEEMKKGHLERECMEETCSYEEAREVFEDSDKTNEFWNKYKDGDQCETSPCQNQGKCKDGLGEYTCTCLEGFEGKNCELFTRKLCSLDNGDCDQFCHEEQNSVVCSCARGYTLADNGKACIPTGPYPCGKQTLER
chain 2: IVGGQECKDGECPWQALLINEENEGFCGGTILSEFYILTAAHCLYQAKRFKVRVGDRNTEQEEGGEAVHEVEVVIKHNRFTKETYDFDIAVLRLKTPITFRMNVAPACLPERDWAESTLMTQKTGIVSGFGRTHEKGRQSTRLKMLEVPYVDRNSCKLSSSFIITQNMFCAGYDTKQEDACQGDSGGPHVTRFKDTYFVTGIVSWGEGCARKGKYGIYTKVTAFLKWIDRSMKTRGLPKAKSHAPEVITSSPLK
prothrombinase activity measured by thrombin generation in human plasma (RFU): IC50=26 nM
